Emax and Activity data for three molecules are collected here from ChEMBL document CHEMBL4011622, “The Structure-Activity Relationship of a Tetrahydroisoquinoline Class of N-Methyl-d-Aspartate Receptor Modulators that Potentiates GluN2B-Containing N-Methyl-d-Aspartate Receptors” (J Med Chem, 2017).

Sequences of proteins named here, by UniProt entry; tags and fusion partners are left off.
UniProt Q00960, whole entry, looked up: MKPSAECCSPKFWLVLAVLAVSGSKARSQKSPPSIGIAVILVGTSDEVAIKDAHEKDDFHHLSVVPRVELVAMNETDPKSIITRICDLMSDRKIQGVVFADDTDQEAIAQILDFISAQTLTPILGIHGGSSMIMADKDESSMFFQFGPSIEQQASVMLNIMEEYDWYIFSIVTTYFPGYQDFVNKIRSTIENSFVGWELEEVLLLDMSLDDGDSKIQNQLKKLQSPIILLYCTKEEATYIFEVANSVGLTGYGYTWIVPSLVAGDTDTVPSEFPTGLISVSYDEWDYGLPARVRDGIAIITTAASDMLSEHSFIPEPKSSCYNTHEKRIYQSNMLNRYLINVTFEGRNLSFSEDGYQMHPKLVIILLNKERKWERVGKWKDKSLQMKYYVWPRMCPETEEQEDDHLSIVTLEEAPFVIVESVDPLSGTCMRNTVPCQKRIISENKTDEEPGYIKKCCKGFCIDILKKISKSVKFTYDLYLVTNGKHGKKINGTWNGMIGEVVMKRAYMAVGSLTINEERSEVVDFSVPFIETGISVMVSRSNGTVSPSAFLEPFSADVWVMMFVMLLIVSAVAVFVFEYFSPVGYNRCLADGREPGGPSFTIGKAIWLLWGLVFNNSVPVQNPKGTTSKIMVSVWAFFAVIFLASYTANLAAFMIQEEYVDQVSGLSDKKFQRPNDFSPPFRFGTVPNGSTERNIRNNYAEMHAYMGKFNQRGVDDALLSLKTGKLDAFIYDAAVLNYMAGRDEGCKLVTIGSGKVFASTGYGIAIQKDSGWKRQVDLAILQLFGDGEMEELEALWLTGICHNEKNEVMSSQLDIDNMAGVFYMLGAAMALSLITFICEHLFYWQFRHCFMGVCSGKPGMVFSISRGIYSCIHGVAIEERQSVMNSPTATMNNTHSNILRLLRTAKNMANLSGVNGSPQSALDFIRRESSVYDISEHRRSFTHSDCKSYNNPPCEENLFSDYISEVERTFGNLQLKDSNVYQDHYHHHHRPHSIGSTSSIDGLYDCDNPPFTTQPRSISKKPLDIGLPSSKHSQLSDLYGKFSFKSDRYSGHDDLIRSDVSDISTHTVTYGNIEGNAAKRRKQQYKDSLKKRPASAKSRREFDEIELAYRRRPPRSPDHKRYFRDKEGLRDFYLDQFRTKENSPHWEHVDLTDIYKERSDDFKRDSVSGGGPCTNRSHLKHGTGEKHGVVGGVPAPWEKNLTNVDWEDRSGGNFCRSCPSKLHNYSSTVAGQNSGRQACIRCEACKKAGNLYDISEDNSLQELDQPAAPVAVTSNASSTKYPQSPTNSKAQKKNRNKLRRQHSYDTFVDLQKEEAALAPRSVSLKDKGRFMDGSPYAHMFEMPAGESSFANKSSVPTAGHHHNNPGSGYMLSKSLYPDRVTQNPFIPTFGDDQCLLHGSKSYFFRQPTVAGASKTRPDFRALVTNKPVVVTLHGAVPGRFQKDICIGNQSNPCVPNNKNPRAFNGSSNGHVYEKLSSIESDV

The target of assay [1] is T1, Glutamate NMDA receptor; Grin1/Grin2b (Rattus norvegicus) (UniProt P35439+Q00960). Kind of assay: Positive allosteric modulation of recombinant rat GluN1/GluN2B receptor expressed in xenopus laevis oocyte assessed as potentiation of glutamate and glycine-induced current response at 10 uM at holding potential -40mV by two electrode voltage clamp method relative to control. Particulars: 30 uM, in the assay text read “at 30 uM” for “at 10 uM”. In a few lines: (§1)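 Two-electrode voltage clamp at -40 mV, 23°C, pH 7.4 Ba²⁺ recording solution, on Xenopus oocytes expressing rat NMDA receptors. Currents were evoked by 100 µM glutamate plus 30 µM glycine, with compound co-applied (DMSO 0.05–0.5% final). […] Each compound used at least 4 oocytes from at least 2 frogs.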
(In general: Two-electrode voltage clamp is typically applied to oocytes expressing channels or transporters.)

Assay [2] addresses T1, Glutamate NMDA receptor; Grin1/Grin2b (Rattus norvegicus). Nature of the assay: Positive allosteric modulation of recombinant rat GluN1/GluN2B receptor expressed in xenopus laevis oocyte assessed as potentiation of glutamate and glycine-induced current response at 30 uM at holding potential -40mV by two electrode voltage clamp method relative to control. In a few lines: as §1

Take `COc1ccc(OCC2c3ccc(OCC(C)C)cc3CCN2C(=O)c2cccc(Cl)c2)cc1` (centres undefined): in assay [1], the Emax (commonly the greatest response seen or fitted, relative to the assay's reference) came out at 333%.
As for `COc1ccc(OCC2c3ccc(OC)cc3CCN2C(=O)c2cccc(Cl)c2)cc1` (centres undefined), in assay [2], the Activity amounted to 90%.
Consider `COc1ccc(OCC2c3ccc(OC(C)C)cc3CCN2C(=O)c2cccc(C(F)(F)F)c2)cc1` (centres undefined), for which, in assay [2], the Activity is 196% and the Emax was 206%.
